Laboratory results reported in article PMC10995192 (Nature Communications, 2024).

By UniProt entry, the sequences of proteins in these tests, tags left out. Residues count along the entry.
UniProt Q9H7M9, 33-311 H153A/H154A/H155A: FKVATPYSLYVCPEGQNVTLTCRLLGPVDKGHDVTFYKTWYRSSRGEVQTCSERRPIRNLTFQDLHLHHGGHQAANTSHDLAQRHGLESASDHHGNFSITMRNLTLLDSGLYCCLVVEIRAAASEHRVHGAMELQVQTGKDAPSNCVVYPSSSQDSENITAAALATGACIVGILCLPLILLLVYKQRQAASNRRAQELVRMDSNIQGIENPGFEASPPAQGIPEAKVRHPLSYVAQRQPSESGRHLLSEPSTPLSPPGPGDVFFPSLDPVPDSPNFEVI
UniProt Q9H7M9, 33-311 F94A: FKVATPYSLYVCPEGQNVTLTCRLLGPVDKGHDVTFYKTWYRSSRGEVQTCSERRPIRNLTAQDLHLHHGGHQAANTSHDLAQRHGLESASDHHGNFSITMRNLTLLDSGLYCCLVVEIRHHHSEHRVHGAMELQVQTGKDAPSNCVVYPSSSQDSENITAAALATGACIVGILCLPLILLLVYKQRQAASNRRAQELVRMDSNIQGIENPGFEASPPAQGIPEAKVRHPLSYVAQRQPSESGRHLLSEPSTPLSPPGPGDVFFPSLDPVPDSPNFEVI
UniProt Q9H7M9, 33-311 H98A: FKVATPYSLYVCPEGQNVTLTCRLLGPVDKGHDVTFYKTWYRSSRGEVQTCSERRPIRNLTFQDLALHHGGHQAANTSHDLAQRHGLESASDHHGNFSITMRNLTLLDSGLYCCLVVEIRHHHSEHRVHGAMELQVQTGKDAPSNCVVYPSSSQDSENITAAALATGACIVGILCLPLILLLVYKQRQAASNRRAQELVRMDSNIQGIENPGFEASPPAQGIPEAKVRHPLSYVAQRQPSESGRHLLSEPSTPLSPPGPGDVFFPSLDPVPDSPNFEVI
UniProt Q9H7M9, 33-311 H98A/H100A/H154A/H155A: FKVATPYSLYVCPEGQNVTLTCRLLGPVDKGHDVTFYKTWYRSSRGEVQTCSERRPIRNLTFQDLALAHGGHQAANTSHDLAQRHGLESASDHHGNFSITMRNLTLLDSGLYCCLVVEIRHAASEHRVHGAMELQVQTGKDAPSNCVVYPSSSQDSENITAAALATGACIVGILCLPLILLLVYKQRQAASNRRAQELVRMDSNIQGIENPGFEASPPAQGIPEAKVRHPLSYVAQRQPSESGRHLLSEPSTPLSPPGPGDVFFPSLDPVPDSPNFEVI
UniProt Q9H7M9, 33-311 H100A: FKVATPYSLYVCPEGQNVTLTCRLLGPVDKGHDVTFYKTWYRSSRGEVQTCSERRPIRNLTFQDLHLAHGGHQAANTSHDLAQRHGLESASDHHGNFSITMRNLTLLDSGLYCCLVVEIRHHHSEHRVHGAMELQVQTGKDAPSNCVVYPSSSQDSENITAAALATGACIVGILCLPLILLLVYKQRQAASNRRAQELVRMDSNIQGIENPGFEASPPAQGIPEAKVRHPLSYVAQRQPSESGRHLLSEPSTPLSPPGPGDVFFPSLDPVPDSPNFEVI
UniProt Q9H7M9, 33-311 H98A/H100A/H117A: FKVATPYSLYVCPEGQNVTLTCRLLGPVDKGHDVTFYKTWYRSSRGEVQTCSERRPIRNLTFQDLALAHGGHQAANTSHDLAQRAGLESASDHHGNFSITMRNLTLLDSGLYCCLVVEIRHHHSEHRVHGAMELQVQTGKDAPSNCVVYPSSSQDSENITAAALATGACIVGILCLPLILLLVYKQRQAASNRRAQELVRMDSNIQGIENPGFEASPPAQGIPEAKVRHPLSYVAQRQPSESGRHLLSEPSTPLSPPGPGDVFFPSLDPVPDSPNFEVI
UniProt Q9H7M9, 33-311 R159A: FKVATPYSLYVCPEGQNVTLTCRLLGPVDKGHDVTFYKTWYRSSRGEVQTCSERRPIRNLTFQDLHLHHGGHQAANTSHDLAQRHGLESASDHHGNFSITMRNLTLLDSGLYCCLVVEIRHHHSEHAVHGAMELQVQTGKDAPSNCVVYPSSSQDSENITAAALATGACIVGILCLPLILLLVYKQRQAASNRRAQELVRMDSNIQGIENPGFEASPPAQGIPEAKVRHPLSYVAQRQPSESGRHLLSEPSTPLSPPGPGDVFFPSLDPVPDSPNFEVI
UniProt Q9H7M9, 33-311 H117A: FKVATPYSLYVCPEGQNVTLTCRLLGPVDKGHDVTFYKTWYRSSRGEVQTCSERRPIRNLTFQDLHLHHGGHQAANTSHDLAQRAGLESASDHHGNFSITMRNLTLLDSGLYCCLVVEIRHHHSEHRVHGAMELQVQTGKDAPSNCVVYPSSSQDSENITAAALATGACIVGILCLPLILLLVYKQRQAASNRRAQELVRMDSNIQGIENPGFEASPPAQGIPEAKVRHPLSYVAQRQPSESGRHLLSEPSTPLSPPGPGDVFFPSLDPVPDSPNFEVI
UniProt Q9H7M9, 33-311 H98A/H100A: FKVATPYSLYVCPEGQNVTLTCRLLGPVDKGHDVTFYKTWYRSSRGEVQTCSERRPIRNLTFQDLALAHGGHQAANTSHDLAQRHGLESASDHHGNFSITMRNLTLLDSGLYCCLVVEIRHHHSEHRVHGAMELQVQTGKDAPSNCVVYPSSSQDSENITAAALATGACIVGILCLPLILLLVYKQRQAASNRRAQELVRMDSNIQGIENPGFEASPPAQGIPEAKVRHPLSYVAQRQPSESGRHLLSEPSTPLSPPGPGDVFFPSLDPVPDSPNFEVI

Columns and labels:
Assay in all cases: SPR; SNS-101 captured on IgG capture chip, VISTA-His variants flowed; 25 °C, PBS with 0.05% Tween 20; pH of the variant series not given; 1:1 Langmuir MTL fit
Conditions in all cases: both partners purified
[1] = target: T1, VISTA-His variant His153Ala/His154Ala/His155Ala (Homo sapiens, UniProt Q9H7M9, His153Ala | His154Ala | His155Ala)
T1 construct: VISTA, human; as m4 with the changes; also called triple histidine mutant; source: Expi293, purified (Ni-NTA)

[2] = target: T2, VISTA-His variant Phe94Ala (Homo sapiens, UniProt Q9H7M9, Phe94Ala)
T2 construct: VISTA, human; as m4 with the change; also called Phe94 mutant; source: Expi293, purified (Ni-NTA)

[3] = target: T3, VISTA-His variant His98Ala (Homo sapiens, UniProt Q9H7M9, His98)
T3 construct: VISTA, human; residue mutated to alanine; as m4 with the change; also called His98 single mutant; source: Expi293, purified (Ni-NTA)

[4] = target: T4, VISTA-His variant His98Ala/His100Ala/His154Ala/His155Ala (Homo sapiens, UniProt Q9H7M9, His98Ala | His100Ala | His154Ala | His155Ala)
T4 construct: VISTA, human; as m4 with the changes; also called His98Ala/His100Ala combined with His154Ala/His155Ala; source: Expi293, purified (Ni-NTA)

[5] = target: T5, VISTA-His variant His100Ala (Homo sapiens, UniProt Q9H7M9, His100)
T5 construct: VISTA, human; residue mutated to alanine; as m4 with the change; also called His100 single mutant; source: Expi293, purified (Ni-NTA)

[6] = target: T6, VISTA-His variant His98Ala/His100Ala/His117Ala (Homo sapiens, UniProt Q9H7M9, His98Ala | His100Ala | His117Ala)
T6 construct: VISTA, human; as m4 with the changes; also called His98Ala/His100Ala combined with His117Ala; source: Expi293, purified (Ni-NTA)

[7] = target: T7, VISTA-His variant Arg159Ala (Homo sapiens, UniProt Q9H7M9, Arg159Ala)
T7 construct: VISTA, human; as m4 with the change; also called Arg159 mutant; source: Expi293, purified (Ni-NTA)

[8] = target: T8, VISTA-His variant His117Ala (Homo sapiens, UniProt Q9H7M9, His117)
T8 construct: VISTA, human; residue mutated to alanine; as m4 with the change; also called His117 single mutant; source: Expi293, purified (Ni-NTA)

[9] = target: T9, VISTA-His variant His98Ala/His100Ala (Homo sapiens, UniProt Q9H7M9, His98Ala | His100Ala)
T9 construct: VISTA, human; as m4 with the changes; also called double histidine mutant; source: Expi293, purified (Ni-NTA)

B1: SNS-101, fully human monoclonal IgG1 kappa antibody against VISTA (antibody, V domains shown)
VH: EVQLVESGGGLVQPGGSLRLSCAASGFTFDDYSMNWVRQAPGKGLEWVSYISSDADTIYYADSVKGRFTISRDNAKNSLYLQMNSLRAEDTAVYYCAREAGGVLGRVDFQHWGQGTLVTVSS
VL: DIQLTQSPSSLSASVGDRVTITCQASQDISNYLNWYQQKPGKAPKLLIYDASNLGTGVPSRFSGSGSGTDFTFTISSLQPEDIATYYCQQADFVPPWTFGGGTKVEIK
- Kd [1]: 17 nM
- Kd [2]: 59 nM
- Kd [3]: 9.5 nM
- Kd [4]: 166 nM
- Kd [5]: 7.5 nM
- Kd [6]: 90 nM
- Kd [7]: 122 nM
- Kd [8]: 4.7 nM
- Kd [9]: 23 nM
